AlphaSeq binding of Ab-14 heavy chain variants to a spike HR2 peptide

The measurements come from Li et al. 2023 (doi:10.1038/s41467-023-39022-2) through the FLAb antibody collection.

Binding partner: SARS-CoV-2 spike HR2 peptide, sequence PDVDLGDISGINAS.

Parent: Ab-14, a human scFv built as VH, a (GGGGS)3 linker, VL. Only the CDRs of the heavy chain vary.
VH: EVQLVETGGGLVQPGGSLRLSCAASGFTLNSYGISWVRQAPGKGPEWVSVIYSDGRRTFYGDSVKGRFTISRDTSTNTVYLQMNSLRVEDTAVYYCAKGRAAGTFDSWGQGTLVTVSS
VL: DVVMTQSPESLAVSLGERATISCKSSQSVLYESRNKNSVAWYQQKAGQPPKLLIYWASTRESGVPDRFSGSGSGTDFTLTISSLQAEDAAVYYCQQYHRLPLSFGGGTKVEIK

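Phage display of a naive human antibody library on the peptide gave the parent. Designed CDR sequences, proposed from the first random library and measured here. Their group label is 14H_GP_HC (GP: Gaussian process model; HC: hill climbing; a sequence that several methods proposed may carry one label only). The scFvs were displayed on barcoded MATa yeast, the peptide on MATalpha yeast. Binding brings cells together so that they mate, and sequencing counts the barcode pairs among the diploids. Scores were corrected for input abundance and mapped to Kd with protein pairs of known affinity run in the same pool. There are six technical replicates.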

Positions count from residue 1 of the parent VH; N30E puts E in place of N. The read-out is the apparent dissociation constant on a log10 scale (nM): the lower, the stronger. Where no diploid with the target was found in that replicate, the entry reads "ND": below detection, most likely a poor binder, though not proof of it. Empty control strains, which show no peptide, gave a signal in 1% of pairings with all heavy chain designs; the median was 2.08 and 95% of these signals were weaker than 0.84. No background was subtracted. For each scFv, signals with the empty controls are counted beside the result. The authors' rule: three or more of the six replicates give a measured affinity, fewer mean a poor binder. A sequence measured in both rounds can read differently, since the two assays cover different ranges.

With N30E/S31W/G61A the result was ND, ND, 1.03, ND, ND, ND (controls 0 of 18).
With T28S/S31E/R100T/S107R the result was 0.30, 0.45, 0.10, 0.54, 0.50, 1.22 (controls 0 of 18).
With S31E/A101F/S107D the result was 1.74, 0.91, 0.57, 2.10, 1.46, 1.64 (controls 1 of 18).
With S31E/G61T/A101M/S107V the result was 0.16, -0.42, -0.77, -0.42, -0.18, -0.24 (controls 0 of 18).
With T28Y/S31E/R100H/S107K the result was ND, 1.43, ND, ND, ND, ND (controls 0 of 18).
With S31E/A101T/D106I/S107L the result was ND, ND, ND, ND, ND, 1.96 (controls 0 of 18).
With T28S/S31D/A101Q/D106W the result was ND, ND, ND, ND, ND, ND (controls 0 of 18).
With S31D/A101H/D106E the result was 2.98, 2.61, 2.39, 2.89, 2.39, 2.01 (controls 1 of 18).
With S31D/T58M/F59Y/G61I the result was 0.71, 0.36, 0.28, 0.99, 0.46, 0.63 (controls 0 of 18).
With T28W/S31E/D106W the result was ND, ND, ND, ND, ND, ND (controls 0 of 18).
With T28L/S31D/G61K/R100N the result was ND, 0.27, 1.34, 0.62, 0.15, 0.86 (controls 0 of 18).
With T28W/S53A/R100W the result was ND, 1.04, ND, 0.37, ND, ND (controls 0 of 18).
With N30K/G61S/R100K/A102G the result was ND, ND, ND, ND, ND, ND (controls 0 of 18).
With S31E/R100F/S107K the result was 0.91, 1.37, 0.70, 0.90, 0.48, 0.95 (controls 0 of 18).
With N30E/G61A/R100T/A101L the result was 0.57, -0.07, 0.08, -0.04, -0.07, 0.08 (controls 2 of 18).
With T28D/A101Y/D106E the result was 0.20, 0.45, 0.50, -0.06, 0.32, 0.38 (controls 0 of 18).
With T28K/G61D/A101T the result was ND, ND, 0.86, ND, 1.59, ND (controls 0 of 18).
With S31N/G61S/A101L/S107T the result was 1.00, 0.15, 0.98, -0.35, 1.63, 0.86 (controls 0 of 18).
With S31E/G61H/T104S the result was ND, 1.03, 0.73, 1.66, 1.30, ND (controls 0 of 18).
With G61S/R100V/A101E/A102G the result was 1.46, 1.02, 1.22, 1.65, 1.15, 1.00 (controls 1 of 18).
With T28D/G61I/G103V the result was ND, ND, ND, ND, ND, ND (controls 0 of 18).
With G26P/S31D/G61T/A101F the result was ND, ND, ND, ND, ND, ND (controls 0 of 18).
With S31E/G61S/R100Q/S107N the result was 0.02, -0.05, -0.50, 0.30, -0.09, 0.40 (controls 0 of 18).
With T28E/S31D/F59S/G61I the result was 0.60, 0.44, 0.16, 1.05, 0.89, 1.03 (controls 1 of 18).
With T28F/S31D/R100T/A101E the result was 1.32, 0.81, 1.85, 0.98, 1.15, 2.68 (controls 1 of 18).
With G26D/G61D/R100Q/A101T the result was 1.53, 1.09, 1.51, 1.55, 1.94, 1.70 (controls 0 of 18).
With G61F/R100Q/A101L the result was 1.09, 2.31, ND, ND, ND, ND (controls 0 of 18).
With N30D/G61H/S107Q the result was 2.70, 0.94, 0.99, 0.59, 0.96, 1.36 (controls 0 of 18).
With S31E/G61T/S63R/R100K/A101F the result was 1.30, 2.34, ND, 1.49, 1.87, 2.26 (controls 1 of 18).
With S31E/A101E/S107I the result was -0.41, -0.25, -0.46, -0.44, -0.35, -0.01 (controls 0 of 18).
With S31D/G61I/S63M/R100N the result was ND, ND, ND, ND, ND, ND (controls 0 of 18).
With N30K/G61S the result was 0.92, ND, 0.61, ND, 2.87, ND (controls 0 of 18).
With T28Q/S31E/S107F the result was 1.72, 1.43, 0.89, 1.36, 0.78, 1.75 (controls 2 of 18).
With S31D/F59W/G61I/A101T the result was 1.51, 1.08, 0.53, 1.42, 1.11, 1.27 (controls 0 of 18).
With T28S/S31M/F59M/G61I the result was 1.22, 2.43, ND, 2.41, 1.45, 0.86 (controls 0 of 18).

A selection of 5 entries from above:

With T28E/S31D/F59S/G61I the result was 0.60, 0.44, 0.16, 1.05, 0.89, 1.03 (controls 1 of 18).
With G26P/S31D/G61T/A101F the result was ND, ND, ND, ND, ND, ND (controls 0 of 18).
With S31E/G61T/S63R/R100K/A101F the result was 1.30, 2.34, ND, 1.49, 1.87, 2.26 (controls 1 of 18).
With T28F/S31D/R100T/A101E the result was 1.32, 0.81, 1.85, 0.98, 1.15, 2.68 (controls 1 of 18).
With S31E/A101E/S107I the result was -0.41, -0.25, -0.46, -0.44, -0.35, -0.01 (controls 0 of 18).